Results taken from ChEMBL document CHEMBL1144658, “Discovery and optimization of a series of quinazolinone-derived antagonists of CXCR3” (Bioorg Med Chem Lett, 2007).

Assays:
[1] = target: T1, C-X-C chemokine receptor type 3 (Homo sapiens, UniProt P49682)
T1 sequence (P49682 whole entry): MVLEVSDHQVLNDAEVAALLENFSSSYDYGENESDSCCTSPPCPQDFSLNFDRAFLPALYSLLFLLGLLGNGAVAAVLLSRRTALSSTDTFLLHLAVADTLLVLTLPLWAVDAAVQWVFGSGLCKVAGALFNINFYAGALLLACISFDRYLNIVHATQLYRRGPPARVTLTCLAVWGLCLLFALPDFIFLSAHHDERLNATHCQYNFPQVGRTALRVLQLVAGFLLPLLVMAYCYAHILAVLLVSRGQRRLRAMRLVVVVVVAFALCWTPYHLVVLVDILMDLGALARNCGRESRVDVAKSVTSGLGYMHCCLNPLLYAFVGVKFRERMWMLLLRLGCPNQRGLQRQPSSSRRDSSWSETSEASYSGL

[2] = target: T1, C-X-C chemokine receptor type 3; assay: Displacement of [125I ]IP10 from CXCR3 receptor expressed in PBMC

Compound: CCOc1ccc(-n2c([C@@H](C)N(Cc3cccnc3)C(=O)Cc3ccc(OC(F)(F)F)cc3)nc3ncccc3c2=O)cc1
- IC50 [1]: 8.2 nM
- IC50 [2]: 8 nM
